This is an account of results in ChEMBL document CHEMBL1136931, “Discovery of low nanomolar and subnanomolar inhibitors of the mycobacterial beta-carbonic anhydrases Rv1284 and Rv3273” (J Med Chem, 2009).

Structures are written as SMILES.

The experiment deals with T1, PROBABLE TRANSMEMBRANE CARBONIC ANHYDRASE (CARBONATE DEHYDRATASE) (CARBONIC DEHYDRATASE) (Mycobacterium tuberculosis, UniProt P96878).
T1 sequence (P96878 whole entry): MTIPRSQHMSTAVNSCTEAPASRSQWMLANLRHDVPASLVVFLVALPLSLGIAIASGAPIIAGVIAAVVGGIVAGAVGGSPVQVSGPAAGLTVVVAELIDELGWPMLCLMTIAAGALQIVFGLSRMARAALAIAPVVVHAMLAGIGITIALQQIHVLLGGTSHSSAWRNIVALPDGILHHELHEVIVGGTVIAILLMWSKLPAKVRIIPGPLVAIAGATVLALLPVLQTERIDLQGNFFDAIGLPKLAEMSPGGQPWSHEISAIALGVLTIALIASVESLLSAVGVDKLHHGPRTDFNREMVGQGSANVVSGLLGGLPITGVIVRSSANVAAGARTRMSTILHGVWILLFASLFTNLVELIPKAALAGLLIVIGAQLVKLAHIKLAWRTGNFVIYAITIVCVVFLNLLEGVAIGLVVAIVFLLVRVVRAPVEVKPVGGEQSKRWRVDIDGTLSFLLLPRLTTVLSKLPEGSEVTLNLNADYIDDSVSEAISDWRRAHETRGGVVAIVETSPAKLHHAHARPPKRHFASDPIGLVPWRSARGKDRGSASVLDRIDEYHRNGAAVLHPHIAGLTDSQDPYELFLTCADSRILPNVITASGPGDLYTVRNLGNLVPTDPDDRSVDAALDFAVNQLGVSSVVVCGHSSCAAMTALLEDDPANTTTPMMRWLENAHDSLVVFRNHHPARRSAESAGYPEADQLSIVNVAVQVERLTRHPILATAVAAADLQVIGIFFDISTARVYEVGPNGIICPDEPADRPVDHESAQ

The term Ki denotes the dissociation constant of the complex between target and ligand, obtained from inhibition or displacement. Read a low Ki as tighter binding. As for `Nc1ccc(S(N)(=O)=O)cc1Br`, affinity was put at a Ki of 0.04 µM.
